Results published in publication PMC4805781 (International Journal for Parasitology: Drugs and Drug …, 2016).

Test: Double-sink parallel artificial membrane permeability assay
Assay type: in vitro ADME

CNC(=C[N+](=O)[O-])NCCSCc1ccc(CN(C)C)o1 [rantidine]
Permeability pH 5.0 (−logPe) (pH 5.0): 5.2 −logPe
Permeability pH 6.2 (−logPe) (pH 6.2): 5.1 −logPe
Permeability pH 7.4 (−logPe) (pH 7.4): > 5.9 −logPe
